This experiment concerns PDGF receptor-directed PTPase(s). The following applies: relative dephosphorylation after 5 min, control without effector = 100%.

Like-named read-outs stand apart in the source and are kept apart here.

As for `O=[As]c1ccccc1` (centres unmarked), under “25 μM”, the “Relative PDGF receptor-directed PTPase activity (% of control)” value is on record as 38 % of control.

Na orthovanadate: the “Relative PDGF receptor-directed PTPase activity (% of control)” value (2 mM) was 34 % of control.

Source of the values: patent US5958719A, “Method for the determination of the activity of specific phosphotyrosine phosphatases and specific effectors thereof in intact cells” (Max-Planck Gesellschaft Zur Foderung der Wissenschaften E.V., priority 1995, dated 1999).
